Test results: ChEMBL document CHEMBL1136094, “Novel, potent and selective cyclin D1/CDK4 inhibitors: indolo[6,7-a]pyrrolo[3,4-c]carbazoles” (Bioorg Med Chem Lett, 2003)

Chains of the proteins cited; added tags and fusions are not shown. Chains listed by the source or under a name are the forms on record and can include a tag or linker.
HCT-116, as listed by the source: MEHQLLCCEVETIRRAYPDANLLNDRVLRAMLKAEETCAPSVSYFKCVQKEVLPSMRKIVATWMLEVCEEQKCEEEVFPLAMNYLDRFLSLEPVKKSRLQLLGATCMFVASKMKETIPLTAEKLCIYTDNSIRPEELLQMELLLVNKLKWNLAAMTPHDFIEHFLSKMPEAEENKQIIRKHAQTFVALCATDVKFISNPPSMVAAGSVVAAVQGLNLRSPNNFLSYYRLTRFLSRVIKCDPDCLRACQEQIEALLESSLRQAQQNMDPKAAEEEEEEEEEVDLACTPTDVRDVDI

Tested on: HCT-116
Experiment: Inhibition of Rb21 phosphorylation by Cyclin D1-cyclin-dependent kinase 4
Format: functional

Fold increase: 1.8
SMILES: COc1ccc2c3c4c(c5c(ccc6ccn(C)c65)c3n(CCN[C@H]3CC[C@H](O)CC3)c2c1)C(=O)NC4=O
